Molecular target: human Keap1 Kelch (Homo sapiens, UniProt Q14145)
Assay: Fluorescence polarization (FP) competition assay with Cy5-Nrf2 peptide probe
Conditions: for Ki: read-out: Ki (FP), mean, ≥3 individual measurements, text and figures

Chains of the proteins cited; added tags and fusions are not shown. Residues count along the entry.
UniProt Q14145, 321-609 limits assumed: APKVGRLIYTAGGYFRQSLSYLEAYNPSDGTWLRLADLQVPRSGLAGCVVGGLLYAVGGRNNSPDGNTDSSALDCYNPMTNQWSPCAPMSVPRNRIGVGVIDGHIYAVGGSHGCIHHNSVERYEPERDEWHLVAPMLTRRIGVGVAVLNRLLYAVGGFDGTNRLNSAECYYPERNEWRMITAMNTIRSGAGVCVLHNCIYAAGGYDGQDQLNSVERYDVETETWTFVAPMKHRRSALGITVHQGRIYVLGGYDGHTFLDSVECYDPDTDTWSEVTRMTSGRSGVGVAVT

| fold difference in affinity (FP) between the enantiomers of 24 (Peak 1 vs Peak 2 after chiral HPLC separation) [fold] | Ki [nM] | Compound |
| --- | --- | --- |
| 14 | 7.9 | Cc1cc2c(cc1[C@@H](CC(=O)O)c1ccc3ccc(OCC(=O)NC4CCCCCC4)cc3c1)OCO2 (single isomer, unassigned) |
| – | 114 | Cc1cc2c(cc1[C@H](CC(=O)O)c1ccc3ccc(OCC(=O)NC4CCCCCC4)cc3c1)OCO2 (single isomer, unassigned) |

From article PMC12455397 (Angewandte Chemie (International Ed. in English), 2025)
